From PubChem BioAssay AID488857 (Sanford-Burnham Center for Chemical Genomics, 2010)
Only a part is listed here, and it is no random draw. Calls of active or inactive are those of the source.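 The calls were made as follows: active = mean inhibition over duplicate tests at 10 µM above 50%; inactive = the rest.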

Experiment: ASC/caspase-1 reporter retest in S. cerevisiae at one dose, specificity check for NALP1 project (AID 488857)
Settings: S. cerevisiae ASC/Caspase-1, beta-galactosidase luminescence, 24 h; at 10 µM; hits give high values

Structure (SMILES)	inhibition
CC(=O)NC(SC(=S)N(C)C)C(Cl)(Cl)Cl (stereo not drawn)	active: 61.8%
O=C(OC1CN2CCC1CC2)C12CC3CC(CC(C3)C1)C2 (stereo not drawn)	inactive: 40.6%
O=[N+]([O-])c1cc([N+](=O)[O-])c(-c2ccn[nH]2)s1	active: 61.1%
